The list shows a part of the results, in another mix than the full data. Calls of active or inactive are those of the source.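 Rule for the calls: active = inhibition above a per-campaign cutoff: mean of compounds within control limits plus 3 SD (cut at about 15% in these data); inactive = the rest.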

Protein sequences, listed by entry. Tags and fused reporters are not part of them. Lines headed by an entry give the natural chain unless they say otherwise; changes in a name come on top.
UniProt P02675: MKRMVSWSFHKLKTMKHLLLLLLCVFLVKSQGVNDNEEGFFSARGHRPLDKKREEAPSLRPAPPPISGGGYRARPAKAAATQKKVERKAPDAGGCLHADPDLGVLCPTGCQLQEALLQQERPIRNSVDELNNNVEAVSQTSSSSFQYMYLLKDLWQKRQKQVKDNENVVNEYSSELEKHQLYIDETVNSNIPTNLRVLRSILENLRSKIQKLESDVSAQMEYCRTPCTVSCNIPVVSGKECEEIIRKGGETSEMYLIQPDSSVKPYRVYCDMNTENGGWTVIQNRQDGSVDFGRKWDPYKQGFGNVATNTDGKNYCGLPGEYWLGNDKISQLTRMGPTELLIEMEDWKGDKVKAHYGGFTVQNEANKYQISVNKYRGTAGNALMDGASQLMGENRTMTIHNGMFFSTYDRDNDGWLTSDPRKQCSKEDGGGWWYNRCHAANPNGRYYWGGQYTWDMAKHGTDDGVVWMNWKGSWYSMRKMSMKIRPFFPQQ

Data on 102 compounds can be found in PubChem BioAssay AID720509 (The Scripps Research Institute Molecular Screening Center, 2013).

The experiment concerns the target Fibrinogen beta chain (Homo sapiens) (UniProt P02675). Put plainly: inhibitors of Tn6 peptide binding to fibrin DD(E), primary screen, biochemical, fluorescence polarization, human fibrin, Tn6 probe (AID 720509).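 Note: 0% = median of all compound wells on the plate and 100% = blocking peptide control.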 The following applies: Fibrin DD(E) TRITC-Tn6 fluorescence polarization displacement; at 8.3 µM; hits give high values. (In fluorescence polarisation assays a small probe gives low polarisation when free and higher when bound to something large.)
`C[N+]1=C2C=CC=CC=C2SC12C([N+](=O)[O-])=CC([N+](=O)[O-])=C[C-]2[N+](=O)[O-]` (configuration not stated): the inhibition (as a rule, the drop in the measured response relative to a control, in per cent) was inactive: -5.05%.
In the case of `Nc1ccc([As](=O)(O)c2ccc(N)cc2)cc1` it was inactive: 10.8%.
Then `CCN(/C(=N/P(=O)(N1CCOCC1)N1CCOCC1)N1CCOCC1)c1ccc(OC)cc1`, with inactive: -3.18%; and `CN(C)C(=O)OCCc1n(C)cc[n+]1C`, with inactive: 2.82%.
In the case of `CC(C)c1nc(Nc2ccccc2)n(P(=O)(N(C)C)N(C)C)n1`, the inhibition is inactive: -0.82%.
Then `CC(C)=N/N=C(\N)N[N+](=O)[O-]`, with inactive: -4.03%; and `CC1CCN(C(=O)Oc2c(Cl)cc(Cl)c3cccnc23)CC1`, with inactive: -0.59%; and `c1cc(-c2nn[nH]n2)ccc1-c1nn[nH]n1`, with inactive: 0.24%.
Turning to `COc1ccc(C2=NCC(CBr)S2)cc1` (configuration not stated), the inhibition was inactive: 6.63%.
For `O=[N+]([O-])c1cccc2n[nH]nc12`, the inhibition is inactive: -4.56%.
In the case of `CC(=O)N1C2C3N(C(C)=O)C1C1N(C(C)=O)C(C(N1C(C)=O)N3C(C)=O)N2C(C)=O`, the inhibition is inactive: -4.84%.
Then `CCc1nc2c(n1)c1c(non1O)c1c2no[n+]1[O-]`, with inactive: 3.21%; and `O=[N+]([O-])c1cc([N+](=O)[O-])c(CCNc2ccccc2)c([N+](=O)[O-])c1`, with inactive: -8.22%.
Then `Cc1ccc(NP(=O)(Oc2ccccc2)Oc2ccccc2)nc1`, with inactive: 3.34%.
In the case of `CC(C)(C)C(=O)NC(Sc1ccncn1)C(Cl)(Cl)Cl` (configuration not stated), the inhibition was inactive: -8.82%.
In the case of `O=[N+]([O-])c1ncn(CCn2ncnc2[N+](=O)[O-])n1` it was inactive: 12.9%; in that of `COC(=O)C1(C)COP(=O)(Nc2ccccc2)OC1` (configuration not stated), inactive: 2.45%.
In the case of `O=[N+]([O-])c1cccc(NC2=NCC(CBr)S2)c1` (configuration not stated) it was inactive: -3.91%; in that of `O=C(O)CNc1ccc([As](=O)(O)O)cc1`, inactive: -8.31%; in that of `O=P1(N(CCCl)CCCl)OCCCS1` (configuration not stated), inactive: 2.27%.
Then `O=C(Nc1cc([As](=O)(O)O)ccc1O)c1ccccc1`, with inactive: 9.48%; and `CCN(N=Nc1nonc1N)c1nonc1N`, with inactive: 4.15%.
Turning to `CN(C(=O)Cc1ccccc1)C1CC[C@@]2(CCCO2)C[C@@H]1N1CCCC1` (some centres not stated), the inhibition is inactive: 1.07%.
In the case of `Nc1cccc2ccc([As](=O)(O)O)cc12` it was active: 21.3%; in that of `CCCC1OP(N)(=O)OCC1CC` (configuration not stated), inactive: 1.61%.
Then `CC(=O)Nc1ccc([As](=O)(O)O)cc1`, with inactive: 5.49%; and `O=C(O)c1ccccc1[As](=O)(O)O`, with inactive: 9.24%; and `O=P(Nc1nc2ccc(Cl)cc2s1)(c1ccccc1)c1ccccc1`, with inactive: -7.21%.
Then `CN(C)P(=O)(N(C)C)n1c(Nc2ccccc2)nnc1-c1ccccc1`, with inactive: 5.93%.
On to `Cc1ccc(NP(=O)(Oc2ccccc2F)Oc2ccccc2F)nc1`, for which the inhibition was inactive: -10.8%.
Take `CN(C(=O)Cc1ccc(Cl)c(Cl)c1)[C@H]1CCCC[C@@H]1N1CCCC1`: the inhibition is inactive: -2.15%.
As for `Cc1cc(SC(NC(=O)c2ccc(F)cc2)C(Cl)(Cl)Cl)ncn1` (configuration not stated), the inhibition is inactive: -5.15%.
Then `CCOP(=O)(Nc1ccccc1)OCC`, with inactive: -8.87%; and `CCn1c(=O)n(C2CCN(CC3CCCCCCC3)C[C@H]2CO)c2ccccc21` (some centres not stated), with inactive: -5.25%.
On to `Nc1cc(N)c2nonc2c1[N+](=O)[O-]`, for which the inhibition is inactive: 2.62%.
With `CC(C)CC(=O)NC(Sc1ccc(Cl)cc1)C(Cl)(Cl)Cl` (configuration not stated), the inhibition is inactive: -0.58%.
Then `O=C(NC(Sc1ccncn1)C(Cl)(Cl)Cl)c1ccccc1` (configuration not stated), with inactive: 7.31%; and `Oc1ccccc1CNc1ccccn1`, with inactive: -0.68%; and `NC(=O)c1cc([N+](=O)[O-])cc([N+](=O)[O-])c1N`, with inactive: -0.08%.
Regarding `Cc1ccc(N/C(=N/P(=O)(N2CCOCC2)N2CCOCC2)N2CCOCC2)cc1`, the inhibition was inactive: 2.23%.
With `CN(C(=O)Cc1ccc(Cl)c(Cl)c1)[C@H]1CCCC[C@H]1N1CCCC1`, the inhibition is inactive: -7.85%.
Take `Cc1ccc(OP(=O)(Nc2nccs2)Oc2ccc(C)cc2)cc1`: the inhibition was inactive: 2.15%.
Consider `COc1ccccc1OP(=O)(Nc1ccc(C)cn1)Oc1ccccc1OC`, for which the inhibition was inactive: -4.54%.
As for `CN1CCCC(OC(=O)C(c2ccccc2)c2ccccc2)C1` (configuration not stated), the inhibition was inactive: 9.68%.
In the case of `Clc1ccc(Cl)c(NC2=NCC(CBr)S2)c1` (configuration not stated), the inhibition is inactive: -0.21%.
In the case of `COC(=O)C1(C)COP(=O)(NCc2ccccc2)OC1` (configuration not stated) it was inactive: 4.07%; in that of `CC(=O)c1ccc(N2CC2c2ccncc2)cc1` (configuration not stated), inactive: 4.48%; in that of `N#C/C(=C\c1ccc(N(CCBr)CCBr)cc1)C(N)=O`, inactive: 0.02%.
Turning to `C[C@H]1OP(=O)(Oc2ccccc2)C[C@@H]2O[C@@H]21` (some centres not stated), the inhibition is inactive: 4.7%.
Then `C[C@@H]1C=CCP(=O)(Oc2ccccc2)O1` (some centres not stated), with inactive: -3.13%.
Turning to `Cc1ccccc1CN(C)C(=O)COC(=O)C(O)(c1ccccc1)c1ccccc1`, the inhibition is inactive: -3.59%.
In the case of `CC(=O)Nc1ccc(Oc2c([N+](=O)[O-])cc([N+](=O)[O-])cc2[N+](=O)[O-])cc1` it was inactive: 3.18%.
Regarding `CC(=O)Nc1ccc([As](=O)(O)O)c(O)c1`, the inhibition is inactive: -1.62%.
Then `CCOc1ccc(C2=NCC(CBr)S2)cc1` (configuration not stated), with inactive: -0.06%.
In the case of `O=P1(Nc2nc3ccc(Cl)cc3s2)COc2ccccc2O1` (configuration not stated) it was inactive: -1.5%; in that of `CCc1cc(O)c([N+](=O)[O-])c(C)c1[N+](=O)[O-]`, inactive: 10.2%.
In the case of `CC(C)(C)C(=O)NC(Sc1ccccc1)C(Cl)(Cl)Cl` (configuration not stated) it was inactive: -0.78%; in that of `CC(=O)NC(SC(=S)N(CC(C)C)CC(C)C)C(Cl)(Cl)Cl` (configuration not stated), inactive: -4.26%; in that of `Cc1ccc(OP(=O)(Nc2ccccn2)Oc2ccc(C)cc2)cc1`, inactive: 6.55%.
With `COC(=O)c1cc2c(s1)N=C(c1ccccc1)N(C)P2(=O)N1CCOCC1` (configuration not stated), the inhibition is inactive: -7.09%.
In the case of `CCC(=O)N1C2C3N(C(=O)CC)C1C1N(C(=O)CC)C(C(N1C(=O)CC)N3C(=O)CC)N2C(=O)CC` it was inactive: -4.69%.
For the compound `O=C(OC1CN2CCC1CC2)c1ccccc1` (configuration not stated), the inhibition is inactive: -4.91%.
As to `O=c1c2cc([N+](=O)[O-])ccc2[nH]c2c([N+](=O)[O-])cc([N+](=O)[O-])cc12`, the inhibition was inactive: 0.91%.
In the case of `CN(C)C(=O)Oc1noc2ccccc12` it was inactive: -7.44%.
As for `CC(NC(=O)COC(=O)C(O)(c1ccccc1)c1ccccc1)c1ccccc1` (configuration not stated), the inhibition is inactive: -1.38%.
For the compound `Cc1ccccc1OP(=O)(Nc1ccccn1)Oc1ccccc1C`, the inhibition is inactive: -1.43%.
In the case of `CCNC(=S)/N=C(\N)N[N+](=O)[O-]` it was inactive: -2.81%; in that of `O=C(NC1CCS(=O)(=O)C1)NP(=S)(Oc1ccccc1)Oc1ccccc1` (configuration not stated), inactive: -2.63%.
Then `Cc1ccc(NP(=O)(Oc2cccc(C)c2)Oc2cccc(C)c2)nc1`, with inactive: 2.98%.
`c1ccc(-c2nn[nH]n2)c(-c2nn[nH]n2)c1`: the inhibition was inactive: 1.18%.
Then `O=P1(N(CCCl)CCCl)OCCC2CCCCN21` (configuration not stated), with inactive: -0.63%.
Then `CC(=O)NC(SC(=S)N(C)C)C(Cl)(Cl)Cl` (configuration not stated), with inactive: 0.34%.
In the case of `O=[N+]([O-])c1ncn(CCn2cnc([N+](=O)[O-])n2)n1` it was inactive: -3.3%.
As to `O=[As](O)(c1ccccc1)c1ccc(O)cc1`, the inhibition was inactive: -1.85%.
For the compound `C(Cc1nn[nH]n1)Cc1nn[nH]n1`, the inhibition is inactive: 3.49%.
On to `Nc1ccc([As](=O)(O)c2ccc([N+](=O)[O-])cc2)cc1`, for which the inhibition was inactive: -1.04%.
As to `C/C(N)=N\P(=O)(OCc1ccccc1)OCc1ccccc1`, the inhibition was inactive: 4.92%.
With `O=C(OC1CN2CCC1CC2)c1cccc(Cl)c1` (configuration not stated), the inhibition was inactive: -8.51%.
Then `COc1ccc(N)c([N+](=O)[O-])c1[N+](=O)[O-]`, with inactive: 2.58%; and `Nc1ccc(CCCCOc2ccccc2)cc1`, with inactive: 0.34%; and `O=P(Nc1ccccn1)(c1ccc(Br)cc1)c1ccc(Br)cc1`, with inactive: -1.29%.
In the case of `CN(C)C1(CNC(=O)c2ccc(Cl)c(S(N)(=O)=O)c2)CCCCC1` it was inactive: 6.52%.
`C[C@H]1OP(=O)(Oc2ccccc2)[C@H](O)[C@H](O)[C@H]1N=[N+]=[N-]` (some centres not stated): the inhibition is inactive: -3%.
As for `O=P(Nc1nc2ccccc2s1)(c1ccccc1)c1ccccc1`, the inhibition is inactive: -3.1%.
For the compound `CC(C)C(=O)NC(Sc1ccccc1)C(Cl)(Cl)Cl` (configuration not stated), the inhibition was inactive: 2.27%.
Take `O=P(Nc1nccs1)(c1ccccc1)c1ccccc1`: the inhibition was inactive: -5.74%.
On to `c1nnnn1CCn1cnnn1`, for which the inhibition is inactive: 1.44%.
As for `COc1ccccc1CNC(=O)COC(=O)C(O)(c1ccccc1)c1ccccc1`, the inhibition is inactive: -2.59%.
Then `CC1(CBr)Cn2c(nc3ccccc3c2=O)S1` (configuration not stated), with inactive: 1.74%; and `CN(C(=O)Cc1ccc(Cl)c(Cl)c1)C1CCCC[C@@H]1N1CCCC1` (some centres not stated), with inactive: -5.19%.
Then `CC(C)/C=N\N=C(\N)N[N+](=O)[O-]`, with inactive: -2.45%; and `CN(C(=O)Cc1ccc(Cl)c(Cl)c1)[C@@H]1CCCC[C@H]1N1CCCC1`, with inactive: -4.69%; and `CCOP(=O)(Nc1ccc(C)cn1)OCC`, with inactive: 1.01%.
For `CN(CCCl)Cc1cc(Cl)c(NC2=NCCN2)c(Cl)c1`, the inhibition is inactive: 2.79%.
In the case of `CCOP(=O)(NC(=NC(C)c1ccccc1)NC(C)c1ccccc1)OCC` (configuration not stated), the inhibition was inactive: 6.79%.
In the case of `O=P1(Nc2ccccn2)COc2ccccc2OC1` it was inactive: 1.56%.
Then `CCC1=CC2Cc3nc4ccc(Cl)cc4c(N)c3C(C1)C2` (configuration not stated), with inactive: 0.9%; and `CC(C)(C)C(=O)NC(Sc1ncccn1)C(Cl)(Cl)Cl` (configuration not stated), with inactive: -5.62%.
Then `O=P1(N(CCCl)CCCl)NCCC(C(F)(F)F)O1` (configuration not stated), with inactive: 3.52%.
For the compound `Clc1n[nH]nc1-c1nn[nH][15n]1`, the inhibition was inactive: 1.57%.
Then `O=P1(Nc2ncccn2)COc2ccccc2OC1`, with inactive: -1.83%; and `Cc1ccc(S(=O)(=O)N(CCCN)CCCc2c(C)nc(N)[nH]c2=O)cc1`, with inactive: -3.39%.
